## Membrane permeability of cyclic peptides

Collected by the curators of CycPeptMPDB (Li et al. 2023) from Kelly et al. 2021, doi:10.1021/jacs.0c06115.

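Conditions beyond the assay type are not listed; see the original paper. Other peptides of the study may be missing here. Peptides that the database sets to -10, its floor, are left out.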

PAMPA is the parallel artificial membrane permeability assay, which has no cells and reads passive diffusion.
Values are log10 P with P in cm/s, so -5 is more permeable than -7.

For CC(=O)N1CCC[C@H]1C(=O)N(C)[C@H](CC(C)C)C(=O)N[C@@H]1C(=O)N(C)[C@H](CC(C)C)C(=O)N(C)[C@@H](CC(C)C)C(=O)N[C@@H](CC(C)C)C(=O)N(C)[C@H](C)C(=O)N[C@H](CC(C)C)C(=O)N2CCC[C@@H]2C(=O)O[C@@H]1C the data give PAMPA -5.81 (log10 cm/s).
For CC(=O)N1CCC[C@H]1C(=O)N(C)[C@H](CC(C)C)C(=O)N[C@@H]1C(=O)N(C)[C@@H](CC(C)C)C(=O)N[C@H](CC(C)C)C(=O)N(C)[C@H](CC(C)C)C(=O)N(C)[C@H](C)C(=O)N[C@H](CC(C)C)C(=O)N2CCC[C@@H]2C(=O)O[C@@H]1C the data give PAMPA -5.33 (log10 cm/s).
For CC(=O)N1CCC[C@H]1C(=O)N(C)[C@H](CC(C)C)C(=O)N[C@@H]1C(=O)N[C@H](CC(C)C)C(=O)N[C@H](CC(C)C)C(=O)N[C@@H](CC(C)C)C(=O)N(C)[C@H](C)C(=O)N[C@H](CC(C)C)C(=O)N2CCC[C@H]2C(=O)O[C@@H]1C the data give PAMPA -6.09 (log10 cm/s).
For CC(=O)N1CCC[C@@H]1C(=O)N(C)[C@H](CC(C)C)C(=O)N[C@@H]1C(=O)N[C@H](CC(C)C)C(=O)N[C@H](CC(C)C)C(=O)N(C)[C@H](CC(C)C)C(=O)N(C)[C@@H](C)C(=O)N[C@H](CC(C)C)C(=O)N2CCC[C@H]2C(=O)O[C@@H]1C the data give PAMPA -5.50 (log10 cm/s).
For CC(=O)N1CCC[C@@H]1C(=O)N(C)[C@@H](CC(C)C)C(=O)N[C@@H]1C(=O)N[C@H](CC(C)C)C(=O)N(C)[C@@H](CC(C)C)C(=O)N[C@H](CC(C)C)C(=O)N(C)[C@H](C)C(=O)N[C@@H](CC(C)C)C(=O)N2CCC[C@@H]2C(=O)O[C@@H]1C the data give PAMPA -5.17 (log10 cm/s).
For CC(=O)N1CCC[C@H]1C(=O)N[C@@H]1C(=O)N[C@H](CC(C)C)C(=O)N[C@@H](CC(C)C)C(=O)N(C)[C@@H](CC(C)C)C(=O)N[C@@H](CC(C)C)C(=O)N(C)[C@H](C)C(=O)N[C@@H](CC(C)C)C(=O)N2CCC[C@@H]2C(=O)O[C@@H]1C the data give PAMPA -5.93 (log10 cm/s).
For CC(=O)N1CCC[C@H]1C(=O)N(C)[C@H](CC(C)C)C(=O)N[C@@H]1C(=O)N(C)[C@@H](CC(C)C)C(=O)N(C)[C@H](CC(C)C)C(=O)N[C@H](CC(C)C)C(=O)N(C)[C@@H](C)C(=O)N[C@H](CC(C)C)C(=O)N2CCC[C@@H]2C(=O)O[C@@H]1C the data give PAMPA -5.92 (log10 cm/s).
For CC(=O)N1CCC[C@@H]1C(=O)N(C)[C@H](CC(C)C)C(=O)N[C@@H]1C(=O)N[C@@H](CC(C)C)C(=O)N(C)[C@H](CC(C)C)C(=O)N(C)[C@H](CC(C)C)C(=O)N(C)[C@@H](C)C(=O)N[C@H](CC(C)C)C(=O)N2CCC[C@@H]2C(=O)O[C@@H]1C the data give PAMPA -5.71 (log10 cm/s).
For CC(=O)N1CCC[C@H]1C(=O)N[C@@H]1C(=O)N[C@H](CC(C)C)C(=O)N[C@@H](CC(C)C)C(=O)N(C)[C@H](CC(C)C)C(=O)N[C@H](CC(C)C)C(=O)N(C)[C@@H](C)C(=O)N[C@@H](CC(C)C)C(=O)N2CCC[C@@H]2C(=O)O[C@@H]1C the data give PAMPA -4.97 (log10 cm/s).
For CC(=O)N1CCC[C@H]1C(=O)N(C)[C@@H](CC(C)C)C(=O)N[C@@H]1C(=O)N[C@@H](CC(C)C)C(=O)N[C@@H](CC(C)C)C(=O)N[C@@H](CC(C)C)C(=O)N[C@@H](C)C(=O)N[C@H](CC(C)C)C(=O)N2CCC[C@H]2C(=O)O[C@@H]1C the data give PAMPA -6.59 (log10 cm/s).
For CC(=O)N1CCC[C@@H]1C(=O)N(C)[C@H](CC(C)C)C(=O)N[C@@H]1C(=O)N[C@H](CC(C)C)C(=O)N(C)[C@@H](CC(C)C)C(=O)N(C)[C@H](CC(C)C)C(=O)N(C)[C@H](C)C(=O)N[C@@H](CC(C)C)C(=O)N2CCC[C@H]2C(=O)O[C@@H]1C the data give PAMPA -5.49 (log10 cm/s).
For CC(=O)N1CCC[C@H]1C(=O)N(C)[C@@H](CC(C)C)C(=O)N[C@@H]1C(=O)N(C)[C@@H](CC(C)C)C(=O)N(C)[C@H](CC(C)C)C(=O)N[C@H](CC(C)C)C(=O)N(C)[C@@H](C)C(=O)N[C@@H](CC(C)C)C(=O)N2CCC[C@H]2C(=O)O[C@@H]1C the data give PAMPA -6.02 (log10 cm/s).
For CC(=O)N1CCC[C@@H]1C(=O)N(C)[C@H](CC(C)C)C(=O)N[C@@H]1C(=O)N[C@H](CC(C)C)C(=O)N(C)[C@H](CC(C)C)C(=O)N[C@H](CC(C)C)C(=O)N(C)[C@H](C)C(=O)N[C@H](CC(C)C)C(=O)N2CCC[C@@H]2C(=O)O[C@@H]1C the data give PAMPA -6.18 (log10 cm/s).
For CC(=O)N1CCC[C@H]1C(=O)N(C)[C@@H](CC(C)C)C(=O)N[C@@H]1C(=O)N(C)[C@H](CC(C)C)C(=O)N(C)[C@H](CC(C)C)C(=O)N[C@H](CC(C)C)C(=O)N(C)[C@H](C)C(=O)N[C@H](CC(C)C)C(=O)N2CCC[C@@H]2C(=O)O[C@@H]1C the data give PAMPA -6.25 (log10 cm/s).
For CC(=O)N1CCC[C@H]1C(=O)N(C)[C@H](CC(C)C)C(=O)N[C@@H]1C(=O)N[C@H](CC(C)C)C(=O)N[C@H](CC(C)C)C(=O)N(C)[C@H](CC(C)C)C(=O)N(C)[C@@H](C)C(=O)N[C@@H](CC(C)C)C(=O)N2CCC[C@H]2C(=O)O[C@@H]1C the data give PAMPA -5.69 (log10 cm/s).
For CC(=O)N1CCC[C@H]1C(=O)N(C)[C@@H](CC(C)C)C(=O)N[C@@H]1C(=O)N(C)[C@H](CC(C)C)C(=O)N(C)[C@@H](CC(C)C)C(=O)N(C)[C@H](CC(C)C)C(=O)N(C)[C@@H](C)C(=O)N[C@H](CC(C)C)C(=O)N2CCC[C@H]2C(=O)O[C@@H]1C the data give PAMPA -5.22 (log10 cm/s).
For CC(=O)N1CCC[C@H]1C(=O)N(C)[C@@H](CC(C)C)C(=O)N[C@@H]1C(=O)N(C)[C@H](CC(C)C)C(=O)N(C)[C@H](CC(C)C)C(=O)N[C@@H](CC(C)C)C(=O)N(C)[C@H](C)C(=O)N[C@@H](CC(C)C)C(=O)N2CCC[C@H]2C(=O)O[C@@H]1C the data give PAMPA -5.45 (log10 cm/s).
For CC(=O)N1CCC[C@@H]1C(=O)N(C)[C@@H](CC(C)C)C(=O)N[C@@H]1C(=O)N[C@H](CC(C)C)C(=O)N[C@@H](CC(C)C)C(=O)N[C@@H](CC(C)C)C(=O)N[C@@H](C)C(=O)N[C@H](CC(C)C)C(=O)N2CCC[C@@H]2C(=O)O[C@@H]1C the data give PAMPA -5.51 (log10 cm/s).
For CC(=O)N1CCC[C@H]1C(=O)N[C@@H]1C(=O)N(C)[C@H](CC(C)C)C(=O)N[C@H](CC(C)C)C(=O)N[C@H](CC(C)C)C(=O)N[C@H](CC(C)C)C(=O)N[C@@H](C)C(=O)N[C@@H](CC(C)C)C(=O)N2CCC[C@@H]2C(=O)O[C@@H]1C the data give PAMPA -7.85 (log10 cm/s).
For CC(=O)N1CCC[C@@H]1C(=O)N(C)[C@H](CC(C)C)C(=O)N[C@@H]1C(=O)N[C@@H](CC(C)C)C(=O)N(C)[C@@H](CC(C)C)C(=O)N(C)[C@H](CC(C)C)C(=O)N[C@@H](C)C(=O)N[C@H](CC(C)C)C(=O)N2CCC[C@H]2C(=O)O[C@@H]1C the data give PAMPA -6.68 (log10 cm/s).
For CC(=O)N1CCC[C@H]1C(=O)N(C)[C@H](CC(C)C)C(=O)N[C@@H]1C(=O)N[C@H](CC(C)C)C(=O)N[C@@H](CC(C)C)C(=O)N[C@H](CC(C)C)C(=O)N(C)[C@@H](C)C(=O)N[C@@H](CC(C)C)C(=O)N2CCC[C@H]2C(=O)O[C@@H]1C the data give PAMPA -5.13 (log10 cm/s).

The 2 lowest values of PAMPA among the entries above:

| compound | PAMPA (log10 cm/s) |
|---|---|
| CC(=O)N1CCC[C@H]1C(=O)N[C@@H]1C(=O)N(C)[C@H](CC(C)C)C(=O)N[C@H](CC(C)C)C(=O)N[C@H](CC(C)C)C(=O)N[C@H](CC(C)C)C(=O)N[C@@H](C)C(=O)N[C@@H](CC(C)C)C(=O)N2CCC[C@@H]2C(=O)O[C@@H]1C | -7.85 |
| CC(=O)N1CCC[C@@H]1C(=O)N(C)[C@H](CC(C)C)C(=O)N[C@@H]1C(=O)N[C@@H](CC(C)C)C(=O)N(C)[C@@H](CC(C)C)C(=O)N(C)[C@H](CC(C)C)C(=O)N[C@@H](C)C(=O)N[C@H](CC(C)C)C(=O)N2CCC[C@H]2C(=O)O[C@@H]1C | -6.68 |